## Measured affinities in a library of Ab-91 heavy chain variants

Target: peptide PDVDLGDISGINAS, taken from heptad repeat 2 (HR2) of SARS-CoV-2 spike.

Parent scFv Ab-91: VL joined to VH by a 15-residue (Gly4Ser)3 linker. Changes lie in the heavy chain CDRs alone.
VL: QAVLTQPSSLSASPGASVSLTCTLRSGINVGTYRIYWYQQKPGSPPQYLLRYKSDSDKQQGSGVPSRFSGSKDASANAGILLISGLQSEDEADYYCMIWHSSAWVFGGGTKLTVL
VH: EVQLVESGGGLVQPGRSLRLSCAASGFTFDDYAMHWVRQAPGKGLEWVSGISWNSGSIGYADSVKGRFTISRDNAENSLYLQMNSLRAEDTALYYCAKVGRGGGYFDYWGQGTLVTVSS

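Variants in AAYL51 differ from the parent at up to three CDR positions; double and triple changes were sampled at random. AlphaSeq pools MATa yeast showing the antibodies with MATalpha yeast showing the peptide. Binding brings cells together so that they mate, and sequencing counts the barcode pairs among the diploids. The ratio of observed to expected reads was calibrated, replicate by replicate, on BCL2-family standards whose Kd was known from biolayer interferometry. There are three technical replicates.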

Substitutions are numbered in sequence along the VH above, starting at 1 (not Kabat).
Values are log10 of the apparent Kd in nM; lower means stronger binding.
The mean shown is taken over the replicates in which the pair was detected.
A pair that was not seen in that replicate is written "n.d."; this usually means weak binding, but a binder can also be missed.
Background: pairings of library AAYL51 with three empty control strains gave a value in 21% of cases (median 4.54, 5th percentile 3.26). Values in that range, when seen in few replicates, are hard to tell from nonspecific mating. The control count says in how many pairings with the empty strains this scFv gave a signal, with their mean in brackets.

changes	log10 Kd (nM) by replicate	mean, log10 nM	empty controls
G59F S63C D107S	n.d. n.d. n.d.	n.d.	1/9 (2.23)
F29Y A33E G104T	n.d. n.d. n.d.	n.d.	2/9 (4.30)
M34T G103V Y108C	5.42 5.55 n.d.	5.48	1/9 (4.54)
F27D G50N D107Q	n.d. n.d. 2.74	2.74	0/9
D30M K65T F106Q	n.d. n.d. n.d.	n.d.	1/9 (4.19)
V64N V99T G103W	n.d. 4.36 4.10	4.23	2/9 (3.88)
S57H I58A	n.d. n.d. 2.79	2.79	0/9
G59S D62K G100W	n.d. n.d. n.d.	n.d.	0/9
D62Q G102R F106V	n.d. n.d. n.d.	n.d.	0/9
G103S Y105W	n.d. n.d. 4.01	4.01	5/9 (4.01)
D31P K65D	n.d. n.d. n.d.	n.d.	2/9 (3.81)
I58W G59W V99K	n.d. n.d. n.d.	n.d.	2/9 (4.00)
S57G Y105I F106W	n.d. n.d. n.d.	n.d.	2/9 (4.27)
H35E A61V V99N	2.74 n.d. n.d.	2.74	0/9
D31R A33R I51P	4.92 5.30 n.d.	5.11	3/9 (5.09)
I51D S57G Y108E	n.d. n.d. n.d.	n.d.	0/9
N54E G59M R101A	n.d. n.d. n.d.	n.d.	1/9 (2.53)
M34K W53G R101G	n.d. n.d. n.d.	n.d.	0/9
M34D G50E G104A	n.d. n.d. n.d.	n.d.	0/9
D30T G50A S55N	n.d. n.d. n.d.	n.d.	1/9 (4.70)
F29K S52V G56T	3.09 n.d. n.d.	3.09	3/9 (3.57)
F27N A33K G102Y	n.d. 2.90 n.d.	2.90	1/9 (2.41)
S55C G102R G103L	n.d. n.d. n.d.	n.d.	0/9
G26I Y32A G102M	n.d. n.d. n.d.	n.d.	1/9 (4.36)
A33T F106M	n.d. n.d. n.d.	n.d.	2/9 (4.99)
A61D V99C R101I	n.d. 5.28 n.d.	5.28	0/9
I51T Y60A F106M	n.d. 5.04 n.d.	5.04	2/9 (4.64)
A61G G103Q F106H	5.03 5.15 4.06	4.75	2/9 (4.45)
I58D G102E G103C	n.d. n.d. n.d.	n.d.	0/9
T28L S52T G56F	5.17 4.99 5.37	5.17	5/9 (4.59)
D30Y G50A G104S	n.d. n.d. n.d.	n.d.	0/9
D30E I51Q	3.90 3.85 4.34	4.03	3/9 (4.42)
D31Y N54F Y108A	5.23 3.17 n.d.	4.20	0/9
N54R S63C V64M	n.d. n.d. n.d.	n.d.	0/9
D31T R101A Y105A	n.d. n.d. n.d.	n.d.	2/9 (3.75)
A33F S55A D62V	n.d. n.d. n.d.	n.d.	1/9 (4.64)
G50H W53F R101A	n.d. n.d. n.d.	n.d.	6/9 (4.66)
M34F D62M V64E	n.d. n.d. 4.48	4.48	0/9
K65C R101T	0.90 0.82 0.34	0.69	6/9 (4.76)
A33Q S57Y G100R	n.d. n.d. n.d.	n.d.	0/9
Y32W A33T D62C	n.d. n.d. n.d.	n.d.	0/9
A61P Y105Q D107F	4.14 n.d. 3.44	3.79	1/9 (2.73)
H35S I51K I58S	n.d. n.d. 3.56	3.56	5/9 (4.68)
Y32F G50I G100Q	n.d. n.d. n.d.	n.d.	0/9
A33Y I58E D107M	n.d. n.d. n.d.	n.d.	1/9 (4.74)

Extract of 5 entries:

changes	log10 Kd (nM) by replicate	mean, log10 nM	empty controls
I51T Y60A F106M	n.d. 5.04 n.d.	5.04	2/9 (4.64)
D30M K65T F106Q	n.d. n.d. n.d.	n.d.	1/9 (4.19)
Y32W A33T D62C	n.d. n.d. n.d.	n.d.	0/9
K65C R101T	0.90 0.82 0.34	0.69	6/9 (4.76)
F29Y A33E G104T	n.d. n.d. n.d.	n.d.	2/9 (4.30)

Parent in this assay: reference entry 1.86, copy in this library 0.88.

The measurements come from Engelhart et al. 2022 (doi:10.1038/s41597-022-01779-4) through the FLAb antibody collection.